Tested on: PAF-induced lethality
Assay: PAF-induced lethality in mice

Question: platelet-activating factor [PAF] was tested. Which lethality (PAF 100 µg/kg i.v. through the tail vein) did it give?
Answer: Its lethality is 0%.

Question: And the lethality (PAF 150 µg/kg i.v. through the tail vein)?
Answer: The lethality was 60%.

Question: And the lethality (PAF 200 µg/kg i.v. through the tail vein)?
Answer: The lethality was 100%.
